# Experimental data taken from paper PMC9330922, “Genomewide Analysis and Biological Characterization of Cathelicidins with Potent Antimicrobial Activity and Low Cytotoxicity from Three Bat Species” (Antibiotics, 2022).
# Test system: HaCaT cells
# Assay: In vitro cytotoxicity assay, WST-1 cell viability
# Type: cell-based, Human
# Conditions: 64 μg/mL, 24 h, WST-1, DMEM with 10% heat-inactivated FBS, triplicate
# Description: HaCaT cells were cultured in Dulbecco’s modified Eagle’s medium (DMEM; Hyclone^TM, Logan, UT, USA) with 10% fetal bovine serum (FBS; Hyclone^TM) and 1% penicillin/streptomycin (Pen-Strep; Hyclone^TM) up to 80% confluence at 37 ℃ and 5% CO2. Cells were detached from the plate by adding 0.25% trypsin-EDTA solution (Gibco^TM; Carlsbad, CA, USA). In a 96-well plate, 2 × 10^4 cells were seeded per well and cultured for 24 h. Subsequently, the medium was replaced with 100 μL DMEM (Hyclone^TM) containing 10% heat-inactivated FBS. Peptides were added to each well at concentrations of 64 μg/mL and 160 μg/mL. As references for complete cell lysis, 64 μg/mL melittin (Sigma-Aldrich) and Triton X-100 (Sigma-Aldrich) were used. Untreated cells were used as negative controls. After 24 h incubation at 37 ℃ and 5 % CO2, 10 μL of coloring solution (Cell Proliferation Reagent WST-1^TM; Sigma Aldrich) was added to each well according to the manufacturer’s instructions. The absorbance at 450 nm (treated group and control) and 650 nm (background) was measured in each well using a microplate reader (xMarkTM spectrophotometer; Bio-Rad). The cell viability was calculated using the following equation. All experiments were performed in triplicate. Cell viability (%) = 100 × (OD (treated group) − OD(Background))/(OD (negative control) − OD (Background))(2)
compound,measurement,value
CC[C@H](C)[C@H](NC(=O)CN)C(=O)NCC(=O)N[C@@H](C)C(=O)N[C@H](C(=O)N[C@@H](CC(C)C)C(=O)N[C@@H](CCCCN)C(=O)N[C@H](C(=O)N[C@@H](CC(C)C)C(=O)N[C@H](C(=O)N[C@H](C(=O)NCC(=O)N[C@@H](CC(C)C)C(=O)N1CCC[C@H]1C(=O)N[C@@H](C)C(=O)N[C@@H](CC(C)C)C(=O)N[C@H](C(=O)N[C@@H](CO)C(=O)N[C@@H](Cc1c[nH]c2ccccc12)C(=O)N[C@H](C(=O)N[C@@H](CCCCN)C(=O)N[C@@H](CCCNC(=N)N)C(=O)N[C@@H](CCCCN)C(=O)N[C@@H](CCCNC(=N)N)C(=O)N[C@@H](CCC(N)=O)C(=O)N[C@@H](CCC(N)=O)C(N)=O)[C@@H](C)CC)[C@@H](C)CC)[C@@H](C)O)[C@@H](C)O)C(C)C)C(C)C [Melittin],Cell Viability ± SD,7.2 ± 0.03 %
